Reference: patent US10106757B2, “Ionic liquid, lubricant, and magnetic recording medium” (DEXERIALS CORPORATION, priority 2016, dated 2018)

Columns and labels:
[1] = Solubility test in hydrocarbon-based solvent n-hexane; conditions: 25° C., 0.5 parts by mass added to 100 parts, ultrasonic 5 minutes, left 1 day, visually observed
Protocol: (§1) To a predetermined amount of Vertrel XF or n-hexane, the ionic liquid, Z-DOL, or Z-TETRAOL was added. Ultrasonic waves were applied to the resultant mixture for 5 minutes, followed by leaving the mixture to stand for 1 day. The solubility was visually observed.
(§2) In case of n-hexane, similarly, 0.5 parts by mass of the ionic liquid, Z-DOL, or Z-TETRAOL was added to 100 parts by mass of n-hexane at 25° C. After applying ultrasonic waves to the resultant for 5 minutes, the resultant was left to stand for 1 day. Thereafter, the solubility was visually observed and evaluated based on the following evaluation criteria.
[Evaluation Criteria (Hydrocarbon-Based Solvent)]
• 0.5% by mass or greater:
Soluble with addition of 0.5 parts by mass • Less than 0.5% by mass:
Insoluble with addition of 0.5 parts by mass
(§3) Note that, the solubility was visually observed, and it was judged as soluble when it was transparent. Moreover, it was judged as not soluble (insoluble) when it was opaque or insoluble components were observed.

[2] = Solubility test in fluorine-based solvent Vertrel XF; conditions: 25° C., 0.2 parts by mass added to 100 parts, ultrasonic 5 minutes, left 1 day, visually observed
Protocol: as §1
as §2, with “Specifically, 0.2” for “In case of n-hexane, similarly, 0.5”, “Vertrel XF (25° C.).” for “n-hexane at 25° C.”
[Evaluation Criteria (Fluorine-Based Solvent)]
• 0.2% by mass or greater:
Soluble with addition of 0.2 parts by mass • Less than 0.2% by mass:
Insoluble with addition of 0.2 parts by mass
as §3

For “nonafluorobutanesulfonic acid-1,3-didodecyl-2-undecylimidazolium [Ex. 1A]”, the Solubility n-hexane [1] was no less than 0.5% by mass, the Solubility n-hexane ([1]; listed as Example 1A) was no less than 0.5 % by mass and the “Solubility Vertrel XF” value [2] was no less than 0.2% by mass. For the same substance, the “Solubility Vertrel XF” value ([2]; listed as Example 1A) was no less than 0.2 % by mass.
With “nonafluorobutanesulfonic acid-1,3-dioctadecyl-2-heptadecylimidazolium [Ex. 3A]” the Solubility n-hexane [1] was no less than 0.5% by mass, the Solubility n-hexane ([1]; listed as Example 3A) was no less than 0.5 % by mass and the “Solubility Vertrel XF” value [2] was less than 0.2% by mass. For the same substance, the “Solubility Vertrel XF” value ([2]; listed as Example 3A) was “less than 0.2 % by mass”.
In the case of “nonafluorobutanesulfonic acid-1-octadecylimidazolium [Comp. Ex. 1A, reference compound]”, the Solubility n-hexane [1] is reported as less than 0.5% by mass and the “Solubility Vertrel XF” value [2] is reported as less than 0.2% by mass.
In the case of “pentadecafluorooctanoic acid octadecyl ammonium salt [Comp. Ex. 4A, reference compound]”, the Solubility n-hexane [1] is reported as less than 0.5% by mass and the “Solubility Vertrel XF” value [2] is reported as less than 0.2% by mass.
